In brackets after ≈: the same amount, converted by molar mass.
Legend:
E. coli (KCTC 1682) = format: cell-based, Escherichia coli; conditions: CLSI broth dilution, MHB, 37 °C, 18 to 24 h
Description: (§1) Peptides were assessed for their antibacterial activity against four Gram-positive and four Gram-negative bacteria, including drug-resistant strains, in accordance with Clinical and Laboratory Standards Institute (CLSI) guidelines. The minimum inhibitory concentration (MIC) was determined using a microtiter broth dilution method. All bacterial strains were incubated overnight at 37 °C. Cultured bacteria were then diluted 10-fold in Muller–Hinton Broth (MHB) medium (Difco, Detroit, MI, USA) and incubated for 3 h to reach mid-log phase. Following the establishment of mid-log phase cultures, bacteria were inoculated into sterile 96-well plates containing serially diluted peptides. The MIC was defined as the lowest concentration of peptides that prevented observable turbidity after incubation of the plates at 37 °C for 18 to 24 h.

[1] = system: S. epidermidis (KCTC 1917); format: cell-based, Staphylococcus epidermidis; conditions: CLSI broth dilution, MHB, 37 °C, 18 to 24 h
Description: as §1

[2] = system: P. aeruginosa (KCTC 1637); format: cell-based, Pseudomonas aeruginosa; conditions: CLSI broth dilution, MHB, 37 °C, 18 to 24 h
Description: as §1

MDRPA (CCARM 2095) = format: cell-based, Pseudomonas aeruginosa; conditions: CLSI broth dilution, MHB, 37 °C, 18 to 24 h
Description: as §1

[3] = system: four Gram-positive and four Gram-negative bacteria; format: cell-based; conditions: over the eight strains of Table 2
Description: as §1

MRSA (CCARM 3090) = format: cell-based, Staphylococcus aureus; conditions: CLSI broth dilution, MHB, 37 °C, 18 to 24 h
Description: as §1

S. aureus (KCTC 1621) = format: cell-based, Staphylococcus aureus; conditions: CLSI broth dilution, MHB, 37 °C, 18 to 24 h, no observable turbidity
Description: as §1

B. subtilis (KCTC 3068) = format: cell-based, Bacillus subtilis; conditions: CLSI broth dilution, MHB, 37 °C, 18 to 24 h
Description: as §1

[4] = system: S. typhimurium (KCTC 1926); format: cell-based, Salmonella typhimurium; conditions: CLSI broth dilution, MHB, 37 °C, 18 to 24 h
Description: as §1

MDRPA = format: cell-based, Pseudomonas aeruginosa; conditions: 8 µM peptide
Description: (§2) We assessed the antibiofilm activity of the peptides by determining their minimum biofilm eradication concentration (MBEC) and minimum biofilm inhibition concentration (MBIC) against drug-resistant bacteria, including MDRPA and MRSA, as previously described. A 96-well plate containing a subculture of 1 × 10^6 CFU/200 μL of bacteria was incubated overnight at 37 °C with or without peptides to test for biofilm inhibition and eradication. The untreated culture served as the negative control, and LL-37 was used as the control peptide.

MRSA = format: cell-based, Staphylococcus aureus; conditions: 4 µM peptide
Description: as §2

Row | SMILES | MIC (E. coli (KCTC 1682)) [µM] | MIC [1] [µM] | MIC [2] [µM] | MIC (MDRPA (CCARM 2095)) [µM] | GM, geometric mean of the MIC [3] [µM] | MIC (MRSA (CCARM 3090)) [µM] | MIC (S. aureus (KCTC 1621)) [µM] | MIC (B. subtilis (KCTC 3068)) [µM] | MIC [4] [µM] | inhibition of biofilm formation (MDRPA) [%] | inhibition of biofilm formation (MRSA) [%]
1 | CC[C@H](C)[C@H](NC(=O)CN)C(=O)NCC(=O)N[C@@H](C)C(=O)N[C@H](C(=O)N[C@@H](CC(C)C)C(=O)N[C@@H](CCCCN)C(=O)N[C@H](C(=O)N[C@@H](CC(C)C)C(=O)N[C@H](C(=O)N[C@H](C(=O)NCC(=O)N[C@@H](CC(C)C)C(=O)N1CCC[C@H]1C(=O)N[C@@H](C)C(=O)NCCCCCC(=O)N[C@H](C(=O)N[C@@H](CO)C(=O)N[C@@H](Cc1c[nH]c2ccccc12)C(=O)N[C@H](C(=O)N[C@@H](CCCCN)C(=O)N[C@@H](CCCNC(=N)N)C(=O)N[C@@H](CCCCN)C(=O)N[C@@H](CCCNC(=N)N)C(=O)N[C@@H](CCC(N)=O)C(=O)N[C@@H](CCC(N)=O)C(N)=O)[C@@H](C)CC)[C@@H](C)CC)[C@@H](C)O)[C@@H](C)O)C(C)C)C(C)C [Mel-LX4] | 32 (≈ 91.1 µg/mL) | 32 (≈ 91.1 µg/mL) | 64 (≈ 182 µg/mL) | 128 (≈ 364 µg/mL) | 60 | 128 (≈ 364 µg/mL) | 32 (≈ 91.1 µg/mL) | 32 (≈ 91.1 µg/mL) | 32 (≈ 91.1 µg/mL) |  | 
2 | CC[C@H](C)[C@H](NC(=O)CN)C(=O)NCC(=O)N[C@@H](C)C(=O)N[C@H](C(=O)N[C@@H](CC(C)C)C(=O)N[C@@H](CCCCN)C(=O)N[C@H](C(=O)N[C@@H](CC(C)C)C(=O)N[C@H](C(=O)N[C@H](C(=O)NCC(=O)NCCCCCC(=O)N1CCC[C@H]1C(=O)N[C@@H](C)C(=O)N[C@@H](CC(C)C)C(=O)N[C@H](C(=O)N[C@@H](CO)C(=O)N[C@@H](Cc1c[nH]c2ccccc12)C(=O)N[C@H](C(=O)N[C@@H](CCCCN)C(=O)N[C@@H](CCCNC(=N)N)C(=O)N[C@@H](CCCCN)C(=O)N[C@@H](CCCNC(=N)N)C(=O)N[C@@H](CCC(N)=O)C(=O)N[C@@H](CCC(N)=O)C(N)=O)[C@@H](C)CC)[C@@H](C)CC)[C@@H](C)O)[C@@H](C)O)C(C)C)C(C)C [Mel-LX3] | 16 (≈ 45.5 µg/mL) | 16 (≈ 45.5 µg/mL) | 16 (≈ 45.5 µg/mL) | 8 (≈ 22.8 µg/mL) | 12.5 | 4 (≈ 11.4 µg/mL) | 8 (≈ 22.8 µg/mL) | 16 (≈ 45.5 µg/mL) | 16 (≈ 45.5 µg/mL) | ~90 | ~90
3 | CC[C@H](C)[C@H](NC(=O)CN)C(=O)NCC(=O)N[C@@H](C)C(=O)N[C@H](C(=O)NCCCCCC(=O)N[C@@H](CCCCN)C(=O)N[C@H](C(=O)NCCCCCC(=O)N[C@H](C(=O)N[C@H](C(=O)NCC(=O)NCCCCCC(=O)N1CCC[C@H]1C(=O)N[C@@H](C)C(=O)NCCCCCC(=O)N[C@H](C(=O)N[C@@H](CO)C(=O)N[C@@H](Cc1c[nH]c2ccccc12)C(=O)N[C@H](C(=O)N[C@@H](CCCCN)C(=O)N[C@@H](CCCNC(=N)N)C(=O)N[C@@H](CCCCN)C(=O)N[C@@H](CCCNC(=N)N)C(=O)N[C@@H](CCC(N)=O)C(=O)N[C@@H](CCC(N)=O)C(N)=O)[C@@H](C)CC)[C@@H](C)CC)[C@@H](C)O)[C@@H](C)O)C(C)C)C(C)C [Mel-LX5] | >128 | >64 | >64 | >128 | 192 | >128 | >128 | >64 | >64 |  | 
4 | CC[C@H](C)[C@H](NC(=O)CN)C(=O)NCC(=O)N[C@@H](C)C(=O)N[C@H](C(=O)N[C@@H](CC(C)C)C(=O)N[C@@H](CCCCN)C(=O)N[C@H](C(=O)N[C@@H](CC(C)C)C(=O)N[C@H](C(=O)N[C@H](C(=O)NCC(=O)N[C@@H](CC(C)C)C(=O)N1CCC[C@H]1C(=O)N[C@@H](C)C(=O)N[C@@H](CC(C)C)C(=O)N[C@H](C(=O)N[C@@H](CO)C(=O)N[C@@H](Cc1c[nH]c2ccccc12)C(=O)N[C@H](C(=O)N[C@@H](CCCCN)C(=O)N[C@@H](CCCNC(=N)N)C(=O)N[C@@H](CCCCN)C(=O)N[C@@H](CCCNC(=N)N)C(=O)N[C@@H](CCC(N)=O)C(=O)N[C@@H](CCC(N)=O)C(N)=O)[C@@H](C)CC)[C@@H](C)CC)[C@@H](C)O)[C@@H](C)O)C(C)C)C(C)C [Melittin] | 8 (≈ 22.8 µg/mL) |  | 16 (≈ 45.5 µg/mL) | 8 (≈ 22.8 µg/mL) |  | 4 (≈ 11.4 µg/mL) | 8 (≈ 22.8 µg/mL) | 16 (≈ 45.5 µg/mL) | 16 (≈ 45.5 µg/mL) |  | 
5 | CC[C@H](C)[C@H](NC(=O)CN)C(=O)NCC(=O)N[C@@H](C)C(=O)N[C@H](C(=O)N[C@@H](CC(C)C)C(=O)N[C@@H](CCCCN)C(=O)N[C@H](C(=O)NCCCCCC(=O)N[C@H](C(=O)N[C@H](C(=O)NCC(=O)N[C@@H](CC(C)C)C(=O)N1CCC[C@H]1C(=O)N[C@@H](C)C(=O)N[C@@H](CC(C)C)C(=O)N[C@H](C(=O)N[C@@H](CO)C(=O)N[C@@H](Cc1c[nH]c2ccccc12)C(=O)N[C@H](C(=O)N[C@@H](CCCCN)C(=O)N[C@@H](CCCNC(=N)N)C(=O)N[C@@H](CCCCN)C(=O)N[C@@H](CCCNC(=N)N)C(=O)N[C@@H](CCC(N)=O)C(=O)N[C@@H](CCC(N)=O)C(N)=O)[C@@H](C)CC)[C@@H](C)CC)[C@@H](C)O)[C@@H](C)O)C(C)C)C(C)C [Mel-LX2] | 32 (≈ 91.1 µg/mL) | 32 (≈ 91.1 µg/mL) | 64 (≈ 182 µg/mL) | 128 (≈ 364 µg/mL) | 56 | 128 (≈ 364 µg/mL) | 32 (≈ 91.1 µg/mL) | 16 (≈ 45.5 µg/mL) | 16 (≈ 45.5 µg/mL) |  | 
6 | CC[C@H](C)[C@H](NC(=O)CN)C(=O)NCC(=O)N[C@@H](C)C(=O)N[C@H](C(=O)NCCCCCC(=O)N[C@@H](CCCCN)C(=O)N[C@H](C(=O)N[C@@H](CC(C)C)C(=O)N[C@H](C(=O)N[C@H](C(=O)NCC(=O)N[C@@H](CC(C)C)C(=O)N1CCC[C@H]1C(=O)N[C@@H](C)C(=O)N[C@@H](CC(C)C)C(=O)N[C@H](C(=O)N[C@@H](CO)C(=O)N[C@@H](Cc1c[nH]c2ccccc12)C(=O)N[C@H](C(=O)N[C@@H](CCCCN)C(=O)N[C@@H](CCCNC(=N)N)C(=O)N[C@@H](CCCCN)C(=O)N[C@@H](CCCNC(=N)N)C(=O)N[C@@H](CCC(N)=O)C(=O)N[C@@H](CCC(N)=O)C(N)=O)[C@@H](C)CC)[C@@H](C)CC)[C@@H](C)O)[C@@H](C)O)C(C)C)C(C)C [Mel-LX1] | 64 (≈ 182 µg/mL) | 32 (≈ 91.1 µg/mL) | 64 (≈ 182 µg/mL) | >128 | 98 | >128 | 64 (≈ 182 µg/mL) | 16 (≈ 45.5 µg/mL) | 32 (≈ 91.1 µg/mL) |  | 

Reference: article PMC11201590, “Enhancing Selective Antimicrobial and Antibiofilm Activities of Melittin through 6-Aminohexanoic Acid Substitution” (Biomolecules, 2024)
